Reference: BindingDB's records for doi:10.1016/S0893-133X(01)00298-6 (Eli Lilly, 2001)

Biological target: Norepinephrine transporter (Rattus norvegicus, UniProt Q9JIA2)

CNCC[C@H](Oc1cccc2ccccc12)c1cccs1 [DULOXETINE]
Ki: 3.6 nM
